These are literature values, as cited in patent US6989159B2, “Pharmaceutical compositions containing lithium carbonate” (JDS Pharmaceuticals, LLC, priority 2000, dated 2006).

For the data set the following is noted: in vivo.

Take `O=C([O-])[O-].[Li+].[Li+]` [Lithium carbonate]: the “clearance relative to that of creatinine” value was “about 20%” and the distribution volume is listed as 0.7–0.9.
